Experimental data from patent US20150268247A1, “Assay for Screening of Anti-Viral Compounds That Inhibit Specific Interaction Interfaces Between Cullin5 and an ElonginB/ElonginC/ CBF-beta/HIV-1 Vif Complex” (UNIVERSITY OF ROCHESTER, priority 2012, published 2015).

Sequences of proteins named here, by UniProt entry; tags and fusion partners are left off. Residues count along the entry.
UniProt P69723, 2-192, added parts left off: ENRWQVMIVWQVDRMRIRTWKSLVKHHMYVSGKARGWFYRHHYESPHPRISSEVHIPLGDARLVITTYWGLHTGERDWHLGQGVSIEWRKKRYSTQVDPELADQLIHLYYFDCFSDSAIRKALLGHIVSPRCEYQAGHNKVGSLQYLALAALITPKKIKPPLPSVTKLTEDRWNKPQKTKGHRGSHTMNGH
UniProt O14508, 158-198: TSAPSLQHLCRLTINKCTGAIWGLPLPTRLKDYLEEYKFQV

Tests used:
Vif/EloB/C/CBFβ = biological target: T1, Vif/EloB/C/CBFβ (UniProt P69723+Q15369); test: Fluorescence anisotropy of 5-FAM Cul5 peptides with Vif/EloB/C/CBFβ; assay type: binding, HIV-1 Vif; human EloB/C/CBFβ
T1 construct: Vif in the context of the Vif/EloB/C/CBFβ is full-length Vif (amino acids 1-192); co-expressing EloB1-118 and EloC17-112 from MCS1 and MCS2, respectively, from a pETDuet-1 vector (pEloBC); made in house; host or cells: E. coli BL21(DE3)
Source text: The dissociation constant (KD) for each interaction is provided.

SOCS2/B/C = SOCS2/B/C (Homo sapiens, UniProt O14508+Q15369); test: biochemical

SMILES	Kd (Vif/EloB/C/CBFβ) [µM]	Kd (SOCS2/B/C) [µM]
CC(C)C[C@H](NC(=O)[C@H](CC(=O)O)NC(=O)[C@H](Cc1ccccc1)NC(=O)[C@H](Cc1c[nH]c2ccccc12)NC(=O)[C@H](CCC(N)=O)NC(=O)[C@H](CCC(N)=O)NC(=O)[C@H](CCCCN)NC(=O)CCCCCNC(=O)c1ccc2c(c1)C(=O)OC21c2ccc(O)cc2Oc2cc(O)ccc21)C(=O)N[C@@H](Cc1ccccc1)C(=O)N[C@@H](CO)C(=O)N[C@@H](CC(=O)O)C(=O)N[C@H](C(=O)N[C@@H](Cc1c[nH]cn1)C(=O)O)C(C)C [Cul5(37-48)]	15.6	–
CC[C@H](C)[C@H](NC(=O)[C@H](CCCCN)NC(=O)[C@H](C)NC(=O)[C@@H]1CCCN1C(=O)CNC(=O)[C@H](CCCCN)NC(=O)[C@H](CC(=O)O)NC(=O)[C@H](CC(=O)O)NC(=O)[C@H](Cc1c[nH]c2ccccc12)NC(=O)[C@H](CC(C)C)NC(=O)[C@H](CS)NC(=O)[C@@H](NC(=O)[C@H](C)NC(=O)[C@H](Cc1c[nH]cn1)NC(=O)[C@@H](NC(=O)[C@H](CC(=O)O)NC(=O)[C@H](CO)NC(=O)[C@H](Cc1ccccc1)NC(=O)[C@H](CC(C)C)NC(=O)CCCCCNC(=O)c1ccc2c(c1)C(=O)OC21c2ccc(O)cc2Oc2cc(O)ccc21)C(C)C)C(C)C)C(=O)N[C@@H](Cc1c[nH]cn1)C(=O)N[C@@H](CCC(N)=O)C(=O)N[C@@H](C)C(=O)N[C@@H](CC(C)C)C(=O)O [Cul5(43-65)]	–	7.3
